Laboratory results from patent US8846929B2, “Substituted-quinoxaline-type piperidine compounds and the uses thereof” (priority 2007, dated 2014).

How the values were obtained:
μ-opioid receptor [1] = biological target: T1, μ-opioid receptor (Homo sapiens (Human), UniProt P35372); test: In vitro mu-opioid receptor binding assay ([3H]-diprenorphine displacement); details: read-out: Ki [Average ± Std Deviation] Opioid Receptor Mu
kappa opioid receptor [2] = biological target: T2, kappa opioid receptor (Homo sapiens (Human), UniProt P41145); test: In vitro kappa-opioid receptor binding assay ([3H]-U69,593 displacement)
[3] = biological target: T3, human opioid receptor-like (ORL-1) (Homo sapiens (Human), UniProt P41146); test: In vitro ORL-1 receptor binding assay ([3H]-nociceptin displacement)
delta opioid receptor = delta opioid receptor (Homo sapiens (Human), UniProt P41143); test: In vitro delta-opioid receptor binding assay ([3H]-Naltrindole displacement)
kappa opioid receptor [4] = biological target: T2, kappa opioid receptor; test: In vitro kappa-opioid receptor [35S]GTPγS functional assay; assay type: biochemical; details: mean ± SEM
μ-opioid receptor [5] = biological target: T1, μ-opioid receptor; test: In vitro mu-opioid receptor [35S]GTPγS functional assay; details: mean ± SEM
[6] = biological target: T3, human opioid receptor-like (ORL-1); test: In vitro ORL-1 receptor [35S]GTPγS functional assay; assay type: biochemical; details: mean ± SEM

SMILES	pKi (μ-opioid receptor [1])	pKi (kappa opioid receptor [2])	pKi [3]	pKi (delta opioid receptor)	GTPγS Opioid Receptor Kappa Emax (kappa opioid receptor [4])	GTPγS Opioid Receptor Mu Emax (μ-opioid receptor [5])	GTPγS ORL-1 Emax [6]
NC(=O)CNc1nc2ccccc2n([C@H]2C[C@H]3CC[C@@H](C2)N3C2CCCCCCC2)c1=O	6.34	6.60	8.19	4.42	9.3 ± 1.4%	9.7 ± 0.3%	104.7 ± 3.8%
CN(CC(=O)O)[C@H]1CCN(c2nc3ccccc3n([C@H]3C[C@H]4CCC[C@@H](C3)N4C3CCCCCCC3)c2=O)C1	6.16	6.23	7.64	5.94	20.0%	31.7%	57.0%

pKi: −log10 of the molar value.
